# Laboratory results as given in patent publication US9079891B2, “Compounds that modulate intracellular calcium” (CALCIMEDICA, INC., priority 2010, dated 2015).
# Amino acid sequences for entries named in this document (tags omitted).
# UniProt Q96D31, whole entry: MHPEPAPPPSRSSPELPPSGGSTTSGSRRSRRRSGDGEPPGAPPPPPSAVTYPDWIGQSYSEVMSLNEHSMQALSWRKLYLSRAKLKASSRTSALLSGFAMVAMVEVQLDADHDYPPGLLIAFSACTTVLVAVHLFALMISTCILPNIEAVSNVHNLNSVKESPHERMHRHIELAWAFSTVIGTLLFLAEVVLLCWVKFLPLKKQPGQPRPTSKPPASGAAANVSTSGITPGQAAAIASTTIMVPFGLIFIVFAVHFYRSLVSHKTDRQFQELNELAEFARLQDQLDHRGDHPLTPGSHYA
# Columns and labels:
# RBL-2H3 cells = assay: Fluorescence-based assay of store-operated calcium entry in RBL-2H3 cells (FLIPR, thapsigargin); conditions: read-out: FLIPR_CRAC: 9 pt CRC - Fluo4_TG-D: RBL-2H3: IC50: Upslope 0-7 sec, Fluo-4
# Procedure: B. Fluorescence-Based Assay of Store-Operated Calcium Entry in RBL-2H3 Cells.
# RBL-2H3 cells are obtained from ATCC and maintained in complete medium with 10% FBS at 37° C./6% CO2.
# The day prior to performing the assay, RBL-2H3 cells are plated in 50 μl of complete medium in a 384 well plate. Cells are grown at 37° C./6% CO2 overnight and grow to 50-60% confluence by the next day. On the assay day, 1.5 μM Fluo-4-AM dye (Invitrogen) in complete medium is added and incubated for 1 hour at RT. Cells are washed twice in Ca^2+-free HBSS buffer and 35 μl Ca^2+-free HBSS buffer is added to each well. 10 μl of a test compound prepared in a Ca^2+-free HBSS solution at 4.5× of the desired concentration is added to a well and incubated for 5 minutes at RT. 10 μl of thapsigargin prepared in a Ca^2+-free HBSS solution at 5.5× of the desired concentration (5.5 uM) is added to each well and incubated for an additional 25 minutes. The initial baseline fluorescence signal is measured with a FLIPR^384 (Molecular Devices) plate reader. 5 μl of 12× calcium in HBSS (12 mM) is added and changes in cellular fluorescence are measured with the FLIPR^384 plate reader. In each well, the change in the fluorescent signal as a function of time due to calcium entry into the cell is determined by calculating the difference between the fluorescent signal measured 7 seconds after calcium addition and the initial baseline fluorescence signal at time zero (t=0). This parameter is designated Upslope. The IC50 value is calculated as the concentration at which 50% of the Upslope is inhibited.
# [1] = molecular target: recombinant human STIM1 and Orai1 (Homo sapiens, UniProt Q96D31); assay: Fluorescence-based assay of store-operated calcium entry in Orai1/STIM1 stable cells (FLIPR); conditions: read-out: FLIPR_CRAC: 9 point CRC: O1S1_JR251: IC50: Peak_over_Basal; HEK-293 cells stably expressing human Orai1/STIM1; Fluo-4; Peak-Basal signal
# Procedure: A. Fluorescence-Based Assay of Store-Operated Calcium Entry in Orai1/Stim1 Stable Cells.
# Cells stably expressing recombinant human STIM1 and Orai1 are generated by transfecting a human Orai1 expression plasmid (pcDNA3.1-Orai1-cmyc) into HEK-293 cells stably overexpressing human STIM1 (Roos et al. 2005 JCB 169(3): 435-445). Colonies of cells stably expressing both STIM1 and Orai1 proteins are selected and then subcloned by limiting dilution. Cells were cultured at 37° C./6% CO2 in complete medium with 10% FBS and appropriate selection markers.
# The day prior to performing the assay Orai1/STIM1 stable cells are plated in 50 μL of complete medium at 90-95% confluence in a 384 well plate. Cells are grown at 37° C./6% CO2 overnight. […] The initial baseline fluorescence signal is then measured with a FLIPR^384 (Molecular Devices) plate reader. Calcium entry is initiated by adding 5 μl of 10×CaCl2 (10 mM) in HBSS, and changes in cellular fluorescence are measured with the FLIPR^384 plate reader. In each well, the magnitude of the fluorescence signal as a result of calcium entry into the cell is determined by calculating the difference between the peak fluorescence signal measured after calcium addition and the initial baseline fluorescence signal (designated Peak-Basal). […]
SMILES,pIC50 (RBL-2H3 cells),pIC50 [1]
Cn1nc(-c2ccccc2F)cc1-c1ccc(C(=O)Nc2ncccc2F)s1,> 6.22,
Cn1nc(-c2ccccc2)cc1-c1ccc(C(=O)Nc2c(F)cncc2F)s1,5.92 to 6.22,5.92 to 6.22
Cn1nc(-c2ccco2)cc1-c1ccc(C(=O)Nc2c(F)cncc2F)s1,> 6.22,
Cn1nc(-c2nccs2)cc1-c1ccc(C(=O)Nc2ccccc2F)s1,> 6.22,
Cn1nc(C(F)(F)F)cc1-c1sc(C(=O)Nc2ccccc2Cl)cc1N,> 6.22,
Cn1nc(-c2ccco2)cc1-c1ccc(C(=O)Nc2ccncc2F)s1,> 6.22,
Cn1nc(-c2ccccc2)cc1-c1ccc(C(=O)Nc2ccccc2F)s1,5.92 to 6.22,
Cn1nc(-c2ccco2)cc1-c1ccc(C(=O)Nc2ncc(Cl)cc2F)s1,> 6.22,
Cn1nc(-c2nccs2)cc1-c1ccc(C(=O)Nc2ncc(Cl)cc2F)s1,> 6.22,
Cn1nc(-c2ccccc2F)cc1-c1ccc(C(=O)Nc2c(F)cncc2F)s1,> 6.22,
Cn1nc(-c2ccccc2F)cc1-c1ccc(C(=O)Nc2ncc(Cl)cc2F)s1,5.92 to 6.22,
Cn1nc(-c2ccco2)cc1-c1ccc(C(=O)Nc2ncccc2F)s1,5.92 to 6.22,
Cn1nc(-c2ccccc2F)cc1-c1cnc(NC(=O)c2ccccc2F)s1,,5.92 to 6.22
Cn1nc(C(F)(F)F)cc1-c1sc(C(=O)Nc2ccccc2F)cc1N,> 6.22,
Cn1nc(-c2nccs2)cc1-c1ccc(C(=O)Nc2ccncc2F)s1,> 6.22,
Cn1nc(-c2ccccc2)cc1-c1ccc(C(=O)Nc2ccncc2F)s1,5.92 to 6.22,

# pIC50: −log10 of the molar value.
